Literature values in PMC5374433, “Theranostic Value of Multimers: Lessons Learned from Trimerization of Neurotensin Receptor Ligands and Other Targeting Vectors” (Pharmaceuticals, 2017).

The chains behind the UniProt entries cited, without tags or fusion partners. Where a name states a change or a piece, a line headed by the entry shows the natural chain unless it says otherwise.
UniProt O95665: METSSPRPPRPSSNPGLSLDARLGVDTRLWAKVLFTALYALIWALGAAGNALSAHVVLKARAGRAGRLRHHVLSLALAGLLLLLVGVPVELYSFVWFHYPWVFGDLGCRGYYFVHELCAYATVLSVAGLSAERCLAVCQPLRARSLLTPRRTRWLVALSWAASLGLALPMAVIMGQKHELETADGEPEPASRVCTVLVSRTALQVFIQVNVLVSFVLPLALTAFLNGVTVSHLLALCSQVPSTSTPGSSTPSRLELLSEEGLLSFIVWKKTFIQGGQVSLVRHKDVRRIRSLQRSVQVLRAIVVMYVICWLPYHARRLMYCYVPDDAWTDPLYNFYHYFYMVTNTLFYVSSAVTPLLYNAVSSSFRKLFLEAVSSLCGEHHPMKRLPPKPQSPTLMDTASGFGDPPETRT

Molecular target: Neurotensin receptor 2 (NTS2) (Homo sapiens) (UniProt O95665)
Assay: radioligand
Settings: cited from earlier work

NT(8-13)
Kd: 1.4 nM
